Results: PMC12831531

Biological target: gp34-M (soluble gp34 ectodomain with one cysteine-to-serine substitution) (HCMV AD169)
Assay: SPR; BIAcore X100; gp34-M strep-FLAG captured (40 RU) on anti-strep Fab; hu4D5 IgG1 Fc variants injected; 1:1 binding kinetics

hu4D5 human IgG1 antibody with wild-type Fc
Kd: 7.3 nM
